COc1cc2c(c(OC)c1OC)-c1ccc(OC)c(=O)cc1[C@@H](NC(C)=O)CC2 [Colchicine, (−)-N-[(7S,12aS)-1,2,3,10-tetramethoxy-9-oxo-5,6,7,9-tetrahydrobenzo[a]heptalen-7-yl]-acetamide]
Mean Cmin concentration on Day 25 (0.6 mg b.i.d. steady state): 0.907 ng/mL
Cmin, MEAN (0.6 mg b.i.d. x 10 days, after last dose (Day 25), healthy adults, N = 13): 0.90651 ng/mL

Reference: patent publication US7964647B2 (Mutual Pharmaceutical Company, Inc., priority 2007, dated 2011)
